Test results published in patent US20060228754A1 (priority 1998, published 2006).

What was measured:
[1] = tested on: monoclonal antibody that recognizes the 3,6-dideoxy-D-galactose (abequose) epitope in Salmonella paratyphi B O-antigens
[2] = molecular target: monoclonal antibody that recognizes the 3,6-dideoxy-D-galactose (abequose) epitope in Salmonella paratyphi B O-antigens; conditions: titration microcalorimetry; literature Kd values; read-out: Kd ± s, Microcal (microcalorimetry); cited from earlier work

Compound | breakthrough volume ([1]; Solution A (compounds 1-4), compound 4 at 0.16 μM, absence of library) [µL] | breakthrough volume of the indicator compound ([1]; after pre-equilibration of the column with compound 5 (15 μM), Solution C) [µL] | Kd [2] [µM]
COC1OC(CO)C(O)C(OC2OC(C)C(O)CC2O)C1O (centres unmarked) [compound 4] | 3.0 ± 0.1 | 1.1 ± 0.3 | 190
COC1OC(CO)C(O)C(OC2OC(C)C(O)CC2O)C1OC1OC(CO)C(O)C(O)C1O (centres unmarked) [compound 5] | – | – | 6.3
COC1OC(CO)C(OC2OC(CO)C(O)C(OC3OC(CO)C(O)C(OC4OC(C)C(O)CC4O)C3OC3OC(CO)C(OC4OC(CO)C(OC5OC(CO)C(O)C(O)C5O)C(O)C4O)C(O)C3O)C2O)C(O)C1O (centres unmarked) [compound 6, αGlc(1-4)βGlc(1-4)αGal(1-2)-[αAbe(1-3)]αMan(1-3)αGlc(1-4)βGlc-OCH3] | – | – | 0.88
